Test results reported in PubChem BioAssay AID504326 (The Scripps Research Institute Molecular Screening Center, 2011).
The entries are a selection whose mix differs from that of the whole data set. Active and inactive are the calls of the source. No stated cut-off is given here; in the data, active means activation above about 18%; inactive means the rest.

Amino acid sequences for entries named in this document (tags omitted).
UniProt P35372, whole entry, looked up: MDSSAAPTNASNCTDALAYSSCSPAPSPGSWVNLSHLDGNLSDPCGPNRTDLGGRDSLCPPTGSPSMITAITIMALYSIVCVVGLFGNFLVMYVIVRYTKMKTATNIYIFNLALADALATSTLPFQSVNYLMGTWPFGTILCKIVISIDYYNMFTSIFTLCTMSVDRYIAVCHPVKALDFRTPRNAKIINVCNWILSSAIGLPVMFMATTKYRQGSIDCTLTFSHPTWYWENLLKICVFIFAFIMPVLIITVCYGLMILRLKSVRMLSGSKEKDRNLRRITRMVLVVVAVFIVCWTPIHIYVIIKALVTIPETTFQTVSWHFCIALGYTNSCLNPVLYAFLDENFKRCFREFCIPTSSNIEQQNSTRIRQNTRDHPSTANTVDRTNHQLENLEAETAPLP
UniProt P41143, whole entry, looked up: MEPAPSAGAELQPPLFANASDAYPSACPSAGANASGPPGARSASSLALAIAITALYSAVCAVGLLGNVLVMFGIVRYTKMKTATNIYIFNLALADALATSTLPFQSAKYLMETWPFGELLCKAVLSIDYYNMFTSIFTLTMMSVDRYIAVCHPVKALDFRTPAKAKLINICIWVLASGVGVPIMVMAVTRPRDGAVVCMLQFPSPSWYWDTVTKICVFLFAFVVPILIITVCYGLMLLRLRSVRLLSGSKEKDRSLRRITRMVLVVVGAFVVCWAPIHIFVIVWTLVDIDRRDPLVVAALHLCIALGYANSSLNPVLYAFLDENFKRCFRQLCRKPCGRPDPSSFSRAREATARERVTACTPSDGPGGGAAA

Target: Mu-type opioid receptor (Homo sapiens) + Delta-type opioid receptor (Homo sapiens) (UniProt P35372+P41143)
Assay: inducers of mu-delta opioid receptor heterodimers – cell-based, luminescence, primary screen (AID 504326);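 further: 0% = vehicle-treated cells and 100% = reference agonist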
Conditions: cells, OPRM1-OPRD1 heterodimerization, at 9.3 µM, hits give high values

Row | Structure (SMILES) | activation
1 | CCOC(=O)C(CC)C1=NC(C)(C)Cc2ccccc21.O=[N+]([O-])c1cc([N+](=O)[O-])c(O)c([N+](=O)[O-])c1 (configuration not stated) | inactive: -1.11%
2 | CN(C)C1(CNC(=O)c2ccc(S(C)(=O)=O)cc2)CCCCC1 | inactive: 3.38%
3 | CC1=C2N=C(C=C3N=C(C(C)=C4[N-][C@@](C)([C@@H]5N=C1[C@](C)(CCC(=O)NC[C@@H](C)OP(=O)([O-])O[C@H]1[C@@H](O)[C@@H](n6cnc7cc(C)c(C)cc76)O[C@@H]1CO)[C@H]5CC(N)=O)[C@@](C)(CC(N)=O)[C@@H]4CCC(N)=O)[C@@](C)(CC(N)=O)[C@@H]3CCC(N)=O)C(C)(C)[C@@H]2CCC(N)=O.[C-]#N.[Co+3] | inactive: -2.5%
4 | O=[N+]([O-])c1cc([N+](=O)[O-])c(Nc2nnnn2CCO)c([N+](=O)[O-])c1 | inactive: -3.6%
5 | CCCOc1ccc(NP(C)(=O)Oc2ccc(Cl)cc2)cc1 (configuration not stated) | inactive: 2.55%
6 | CP(=O)(Nc1ccc(SC(F)(F)F)cc1)Oc1ccccc1 (configuration not stated) | inactive: 2.48%
7 | COc1ccccc1OP(C)(=O)Nc1c(C)cccc1C (configuration not stated) | inactive: -2.44%
8 | CN1CCCCC1COC(=O)C1(O)c2ccccc2CCc2ccccc21 (configuration not stated) | inactive: 0.78%
9 | O=[N+]([O-])c1cc([N+](=O)[O-])c(-n2nnc3ccccc32)c([N+](=O)[O-])c1 | inactive: -2.74%
10 | Cc1nc2ccc3ccccc3c2s1.O=[N+]([O-])c1cc([N+](=O)[O-])c(O)c([N+](=O)[O-])c1 | inactive: -3.5%
11 | O=[N+]([O-])c1cc([N+](=O)[O-])c(-c2cnn(-c3ccccc3)c2)c([N+](=O)[O-])c1 | inactive: 16.7%
12 | CCOC(=O)c1ccc(NP(C)(=O)Oc2cc(C)cc(C)c2)cc1 (configuration not stated) | inactive: 0.5%
13 | Cc1cc(C)cc(OP(C)(=O)Nc2ccc(C)cc2C)c1 (configuration not stated) | inactive: 3.03%
14 | COc1ccccc1OP(C)(=O)Nc1cccc(Br)c1 (configuration not stated) | inactive: 0.94%
15 | COc1cc(C(=O)NCC2(N3CCOCC3)CCCCC2)cc(Cl)c1OC(C)C | inactive: 3.38%
16 | Cc1ccc(C)c(NP(C)(=O)Oc2ccccc2)c1 (configuration not stated) | inactive: 0.65%
17 | Cc1cc(C)cc(OP(C)(=O)Nc2ccccn2)c1 (configuration not stated) | inactive: -2.3%
18 | CP(=O)(Nc1cccc(Br)c1)Oc1ccccc1 (configuration not stated) | inactive: -2.39%
19 | O=C(O)c1cccc(Nc2c([N+](=O)[O-])cc([N+](=O)[O-])cc2[N+](=O)[O-])c1 | inactive: -2.63%

Row | Structure (SMILES) | activation
20 | CC1=NCCc2c1[nH]c1ccccc21.O=[N+]([O-])c1cc([N+](=O)[O-])c(O)c([N+](=O)[O-])c1 | inactive: -0.44%
21 | CN(C(=O)Cc1ccc(Cl)c(Cl)c1)[C@H]1CC[C@@]2(CCCO2)C[C@@H]1N1CCCC1 | active: 46.1%
22 | O=[N+]([O-])c1ccc2c(c1)C=Nc1ccccc1O2 | inactive: 2.07%
23 | Cc1cccc(C)c1OP(C)(N)=O (configuration not stated) | inactive: -0.85%
24 | CC(C)(C)c1ccc(OP(C)(=O)Nc2ccc(SC(F)(F)F)cc2)cc1 (configuration not stated) | inactive: 3.62%
25 | COc1cc(C(=O)NCC2(N3CCOCC3)CCCCC2)ccc1OCC(C)C | inactive: 0.38%
26 | O=[N+]([O-])c1cc([N+](=O)[O-])c(Nc2cccnc2)c([N+](=O)[O-])c1 | inactive: -0.77%
27 | Cc1cc(C)cc(OP(C)(N)=O)c1 (configuration not stated) | inactive: -3.12%
28 | COc1ccc(OP(C)(=O)Nc2cccc(F)c2)cc1 (configuration not stated) | inactive: -0.54%
29 | COc1ccccc1OP(C)(=O)Nc1cc(Cl)ccc1C (configuration not stated) | inactive: -1.4%
30 | Cc1ccc(NP(C)(=O)Oc2ccccc2)c(C)c1 (configuration not stated) | inactive: -0.92%
31 | COc1ccccc1OP(C)(=O)Nc1ccc(C)cc1 (configuration not stated) | inactive: -0.84%
32 | CCOC(=O)c1ccc(NP(C)(=O)Oc2ccccc2)cc1 (configuration not stated) | inactive: 0.75%
33 | CCN(CC)CCn1c(NCc2ccc(OC)cc2)nc2ccccc21 | inactive: -1.33%
34 | CCN(CC)CCCOC(=O)C(O)(c1ccccc1)c1ccccc1 | inactive: -2.02%
35 | Cc1ccc(S(=O)(=O)NCCC(=O)N2CCN(C/C=C/c3ccccc3)CC2)cc1 | inactive: -1%
36 | Cc1cc(C)cc(OP(C)(=O)Nc2ccc(SC(F)(F)F)cc2)c1 (configuration not stated) | inactive: 9.65%
37 | CP(=O)(NC(=O)Nc1ccccc1)Oc1ccccc1 (configuration not stated) | inactive: 1.09%
38 | CCc1ccc(OP(C)(=O)N2CCN(c3ccc([N+](=O)[O-])cc3)CC2)cc1 (configuration not stated) | inactive: -1.76%

Row | Structure (SMILES) | activation
39 | CP(=O)(Oc1ccccc1)OC(c1ccccc1)C(F)(F)F (configuration not stated) | inactive: -1.42%
40 | Cc1cccc(C)c1OP(C)(=O)Nc1ccc(SC(F)(F)F)cc1 (configuration not stated) | inactive: -0.06%
41 | CP(=O)(Nc1ccccn1)Oc1ccc(Cl)cc1 (configuration not stated) | inactive: -1.85%
42 | CCOC(=O)c1ccc(NP(C)(=O)Oc2ccc(OC)cc2)cc1 (configuration not stated) | inactive: 2.43%
43 | CCOP(C)(=S)SCC(=O)NC(C)C(=O)O (configuration not stated) | inactive: 0.21%
44 | CCCCOc1ccc(C(=O)NCC2(N3CCCCC3)CCCCC2)cc1OC | inactive: -0.26%
45 | CP(=O)(Nc1ccccc1Br)Oc1ccccc1 (configuration not stated) | inactive: -3.06%
46 | COc1ccccc1OP(C)(=O)Nc1ccccc1 (configuration not stated) | inactive: -1.97%
47 | C=CCC1(Nc2ccccc2)CC(C)N(C)CC1C (configuration not stated) | inactive: -1.86%
48 | CP(=S)(Nn1cnnc1)Oc1ccccc1 (configuration not stated) | inactive: -2.28%
49 | CCOC(=O)c1ccc(NP(C)(=O)Oc2ccc(Cl)cc2)cc1 (configuration not stated) | inactive: -0.81%
50 | CP(=O)(OC12CC3CC(CC(C3)C1)C2)OC12CC3CC(CC(C3)C1)C2 | inactive: 7.21%
51 | O=C(OCCCN1CCCC1)C(O)(c1ccccc1)C1CCCCC1 (configuration not stated) | inactive: -3.39%
52 | COc1ccccc1OP(C)(=O)Nc1c(C)n(C)n(-c2ccccc2)c1=O (configuration not stated) | inactive: -2.7%
53 | CCc1ccc(OP(C)(=O)Nc2cccnc2)cc1 (configuration not stated) | inactive: 0.15%
54 | CP(=O)(Oc1ccccc1)N1CCOC1=O (configuration not stated) | inactive: -2.33%
55 | COc1ccc(OP(C)(=O)Nc2ccc(Br)cc2)cc1 (configuration not stated) | inactive: -0.2%
56 | CCN(CC)CC(O)COC(=O)C(O)(c1ccccc1)C1CCCCC1 (configuration not stated) | inactive: -1.96%
57 | CN(C)C(=O)c1c([N+](=O)[O-])cc([N+](=O)[O-])cc1[N+](=O)[O-] | inactive: 10%
